Assay results published in article PMC6225275 (Molecules : A Journal of Synthetic Chemistry and Natural …, 2018).

Amino acid sequences for entries named in this document (tags omitted). Residues count along the entry.
UniProt P22303, 32-614 limits assumed: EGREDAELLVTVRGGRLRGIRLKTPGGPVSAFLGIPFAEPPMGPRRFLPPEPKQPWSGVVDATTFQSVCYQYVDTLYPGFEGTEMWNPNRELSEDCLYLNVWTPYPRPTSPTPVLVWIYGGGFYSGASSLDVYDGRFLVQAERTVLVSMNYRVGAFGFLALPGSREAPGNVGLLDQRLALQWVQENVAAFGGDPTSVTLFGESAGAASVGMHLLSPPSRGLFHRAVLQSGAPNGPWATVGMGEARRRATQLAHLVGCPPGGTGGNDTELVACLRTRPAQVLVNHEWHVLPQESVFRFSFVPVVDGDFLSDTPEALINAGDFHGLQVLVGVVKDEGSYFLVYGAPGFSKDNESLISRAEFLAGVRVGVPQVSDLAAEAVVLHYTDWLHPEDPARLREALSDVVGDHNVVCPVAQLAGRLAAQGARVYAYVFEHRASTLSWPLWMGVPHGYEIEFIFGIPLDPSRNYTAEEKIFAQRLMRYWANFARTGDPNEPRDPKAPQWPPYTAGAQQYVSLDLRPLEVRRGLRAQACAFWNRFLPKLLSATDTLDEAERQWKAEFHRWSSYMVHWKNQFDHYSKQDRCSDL

Molecular target: tabun (GA)-inhibited human recombinant AChE (HssAChE) (Homo sapiens, UniProt P22303)
Experiment: Reactivation of tabun (GA)-inhibited HssAChE, Ellman protocol
Details: 15 min incubation, pH 7.4, triplicate

Structure (SMILES) | GA-HssAChE Reactivation (% ± SD) (reactivator 10 μM) [%] | GA-HssAChE Reactivation (% ± SD) (reactivator 100 μM) [%]
O=C(O)c1cc[n+](CCCC[n+]2ccc(C=NO)cc2)cc1.[Br-].[Br-] [Compound 20, 4-Carboxy-4′-hydroxyiminomethyl-1,1′-(but-1,4-diyl)-bispyridinium dibromide] | 6.2 ± 0.3 | 3.3 ± 0.5
Cc1cc[n+](CCCC[n+]2ccc(C=NO)cc2)cc1.[Br-].[Br-] [Compound 14, 4-Hydroxyiminomethyl-4′-methyl-1,1′-(but-1,4-diyl)-bispyridinium dibromide] | 6.3 ± 0.3 | 3.4 ± 0.4
OCc1cc[n+](CCCC[n+]2ccc(C=NO)cc2)cc1.[Br-].[Br-] [Compound 18, 4-Hydroxyiminomethyl-4′-hydroxymethyl-1,1′-(but-1,4-diyl)-bispyridinium dibromide] | 4.0 ± 0.3 | 2.6 ± 0.3
ON=Cc1cc[n+](CCCC[n+]2ccccc2)cc1.[Br-].[Br-] [Compound 10, 4-Hydroxyiminomethyl-1,1′-(but-1,4-diyl)-bispyridinium dibromide] | 4.5 ± 0.3 | 3.9 ± 0.1
